Tests used:
Format in all cases: cell-based, mouse
[1] = system: TGF-β-activated Smad2/3 signaling; assay: Western blot for phosphorylated Smad2/3 (canonical TGF-β-activated signaling) in primary macrophages/microglia; details: wild-type peripheral macrophages, 30 min; TGF-β1 5 ng/mL alone, BMP-2 50-200 ng/mL or BMP-4 12.5-50 ng/mL (FIG. 12B)
Procedure: (§1) Cortical microglia were isolated from neonatal (1-2 day-old) CD11c-DNR or wild-type C57BL/6 mice according to previously published methods (Tan et al., 1999 Science 286: 2352-2355; Town et al., 2006 J. Immunol, 176: 3804-3812), Briefly, brains were isolated under sterile conditions and cerebral cortices were incubated in tripsin-EDTA (Invitrogen-Gibco) for 15 min at 37° C. Complete RPMI 1640 medium (supplemented with 10% FCS and 1 mM penicillin-streptomycin) was then added and brains were dissociated by trituration. Subsequently, cerebral cortex material was plated in 25 cm^2 flasks (Fisher Scientific), and the media was changed every 2-3 days. […] The following morning, MΦ were rinsed four times in ambient temperature PBS and fresh medium was added, Cultures of microglia and peripheral MΦ were both >95% pure as determined by immunofluorescent staining with CD11b and CD45 antibodies. […] Protein concentration was determined using the Bradford method, and aliquots corresponding to 50 μg of protein were run out on 12% Nu-PAGE™ polyacrylamide gels (Invitrogen) and proteins were transferred electrophoretically to Immobilon-P polyvinylidene difluoride membranes (Millipore). […]

[2] = system: bone morphogenic protein-activated Smad1/5/8 signaling; assay: Western blot for phosphorylated Smad1/5/8 (alternate bone morphogenic protein-activated signaling) in peripheral macrophages; details: wild-type peripheral macrophages
Procedure: as §1

[3] = system: p21-activated kinase 2 (PAK2); assay: Western blot for phosphorylated PAK2 in peripheral macrophages; details: wild-type peripheral macrophages, 30 min; TGF-β1 5 ng/mL alone, BMP-2 50-200 ng/mL or BMP-4 12.5-50 ng/mL (FIG. 12B)
Procedure: Cortical microglia were isolated from neonatal (1-2 day-old) CD11c-DNR or wild-type C57BL/6 mice according to previously published methods (Tan et al., 1999 Science 286: 2352-2355; Town et al., 2006 J. Immunol, 176: 3804-3812), Briefly, brains were isolated under sterile conditions and cerebral cortices were incubated in tripsin-EDTA (Invitrogen-Gibco) for 15 min at 37° C. Complete RPMI 1640 medium (supplemented with 10% FCS and 1 mM penicillin-streptomycin) was then added and brains were dissociated by trituration. Subsequently, cerebral cortex material was plated in 25 cm^2 flasks (Fisher Scientific), and the media was changed every 2-3 days. […] The following morning, MΦ were rinsed four times in ambient temperature PBS and fresh medium was added, Cultures of microglia and peripheral MΦ were both >95% pure as determined by immunofluorescent staining with CD11b and CD45 antibodies.
Microglia or peripheral MΦ from wild-type or CD11c-DNR mice were plated at 1×10^6 cells/well in 6-well tissue culture plates (BD Biosciences-Falcon) containing complete RPMI 1640 media or complete DMEM, respectively. […] Protein concentration was determined using the Bradford method, and aliquots corresponding to 50 μg of protein were run out on 12% Nu-PAGE™ polyacrylamide gels (Invitrogen) and proteins were transferred electrophoretically to Immobilon-P polyvinylidene difluoride membranes (Millipore). […]

B1: BMP-2: recombinant bone morphogenic protein (BMP)-2 (protein, UniProt P12643 283-396, looked up)
Bone morphogenetic protein 2: QAKHKQRKRLKSSCKRHPLYVDFSDVGWNDWIVAPPGYHAFYCHGECPFPLADHLNSTNHAIVQTLVNSVNSKIPKACCVPTELSAISMLYLDENEKVVLKNYQDMVVEGCGCR
In the case of B1, the Smad2/3 phosphorylation [1] is reported as “did not impact”, the “ratio of pSmad1/5/8 to pSmad2/3” value ([2]; BMP monotreatment compared with TGF-β1 treatment alone) is reported as “increased” and the Smad1/5/8 phosphorylation ([2]; 30 min, TGF-β1 5 ng/mL alone, BMP-2 50-200 ng/mL or BMP-4 12.5-50 ng/mL (FIG. 12B)) is reported as “promoted”. For the same molecule, the PAK2 phosphorylation [3] was “promoted”.
